A short description of the assay: Biochemical Assay: For the biochemical assay panel, 50 nl of the test compounds, reference compounds and buffer/DMSO control are transferred to the respective wells of a 384-well white GREINER "SMALL VOLUME" PS plate. The assay panel is run at room temperature on a Biomek FX liquid handling workstation. To the assay plates containing 50 nl compound or control solutions in 90% DMSO, 4.5 ul of E3 ligase solution were added per well, followed by 4.5 ul of the pre-incubated E1/E2/Ub mix or the pre-diluted ubiquitin (LOW control). Plates are shaken vigorously after each addition. In this assay the compound concentrations range from 3 nM to 10 uM in an 8-point dose-response curve. After 45 min of incubation the ubiquitinylation reactions were stopped by adding 4.5 ul 2 mM NEM, immediately followed by 4.5 ul of a detection solution including the XL665-labeled antibody and the streptavidin-coupled europium to give a total volume of 18 ul. After an incubation time of 45 min in the dark, the plates are transferred into the Pherastar fluorescence reader to measure the TR-FRET signal.

Structures are written as SMILES.

For orientation: IC50 means the point on the concentration scale where inhibition reaches its midpoint. A high value points to weaker potency in that assay. The compound `Cc1c(C(=O)Nc2c(C)n(C)n(C3CCCCC3)c2=O)noc1[C@@H]1OC[C@@H](C(C)(C)C)O1` gave a half-inhibitory concentration (IC50) of 840 nM.
